# Apparent affinities of Ab-95 variants for a coronavirus HR2 peptide

Source: Engelhart et al. 2022 (doi:10.1038/s41597-022-01779-4), MIT Lincoln Laboratory and A-Alpha Bio; data file from the FLAb repository.

The target is the same throughout: PDVDLGDISGINAS, from the HR2 region of SARS-CoV-2 spike.

Each scFv is VH, three GGGGS repeats, VL, as in the parent Ab-95, and differs from it in the CDRs of the light chain only.
VH: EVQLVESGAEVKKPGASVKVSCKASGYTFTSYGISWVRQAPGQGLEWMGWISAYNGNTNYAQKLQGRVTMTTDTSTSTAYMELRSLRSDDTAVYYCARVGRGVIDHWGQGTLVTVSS
VL: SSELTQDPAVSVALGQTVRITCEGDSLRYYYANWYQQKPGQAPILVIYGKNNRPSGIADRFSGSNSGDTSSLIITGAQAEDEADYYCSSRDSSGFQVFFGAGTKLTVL

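The starting antibody came from a phage panning campaign against this peptide. The library (AAYL52) carries one to three amino acid substitutions per variant, with no insertions or deletions. Affinity was read by AlphaSeq, a pooled yeast mating assay with surface-displayed partners. After mating in shaken culture at 30 °C for 16 h, diploids were selected and their barcode pairs sequenced. Read counts were normalised to the haploid input and turned into Kd by a linear fit to BCL2-family pairs of known affinity, for each replicate. The assay was run in three technical replicates.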

Each variant is given by its three light chain CDRs, as the data file delimits them; those of the parent are EGDSLRYYYAN, GKNNRPS, SSRDSSGFQVF. The read-out is the apparent dissociation constant on a log10 scale (nM): the lower, the stronger. Replicates are averaged; those with no signal do not enter the mean. Where no diploid with the target was found in any replicate, the entry reads "no signal": below detection, most likely a poor binder, though not proof of it. As a blank, each scFv also met three strains without target: over library AAYL52, 28% of these pairings were detected, typically at 3.91 and seldom below 2.90. For each scFv, signals with the empty controls are counted beside the result.

| mean, log10 nM | seen in | signal with controls | CDR-L1 | CDR-L2 | CDR-L3 |
|---|---|---|---|---|---|
| 4.37 | 3/3 | 4/9 | EGRSLRYTYAV | GKNNRPS | SSRDSSGFQVF |
| 4.05 | 1/3 | 3/9 | EGDSLRYYYYN | GKNNRPS | SSRDQSGWQVF |
| 0.99 | 3/3 | 3/9 | EGDFLRYNYAN | GKNNRPS | SSRDSSGFAVF |
| 2.98 | 1/3 | 1/9 | EGDSLRYYYSN | GKNNRPS | SSRDSWGKQVF |
| 3.12 | 3/3 | 4/9 | EGDSLEYYYAN | GKNNLPY | SSRDSSGFQVF |
| 4.71 | 2/3 | 6/9 | VGDSLRYYYRN | GKNNRPS | RSRDSSGFQVF |
| 4.27 | 2/3 | 0/9 | EWDSLRYYYAN | GKHNRPS | WSRDSSGFQVF |
| 3.89 | 1/3 | 2/9 | EGDSLRYYYAN | GKQNRPS | SHRDSMGFQVF |
| 3.95 | 3/3 | 3/9 | EADSLRYYYAN | GKNNRYS | SSRISSGFQVF |
| no signal | 0/3 | 1/9 | EGDSLRHYYAN | LKNNRPS | ASRDSSGFQVF |
| 2.41 | 3/3 | 4/9 | AGDSLRYYYAN | GKNCRPS | SSRDSKGFQVF |
| 4.34 | 1/3 | 4/9 | EWDSLRYYYAN | GKNNRTS | SSRHSSGFQVF |
| 2.13 | 3/3 | 5/9 | EGDSLSYYMAN | GVNNRPS | SSRDSSGFQVF |
| 3.77 | 1/3 | 1/9 | EGDCLRYYYAN | GKNCYPS | SSRDSSGFQVF |
| 3.21 | 3/3 | 6/9 | EGDSDRYYGWN | GKNNRPS | SSRDSSGFQVF |
| 2.67 | 3/3 | 0/9 | EGDSLRYNYYN | NKNNRPS | SSRDSSGFQVF |
| no signal | 0/3 | 1/9 | EGNSLRYYYAN | GKNNYPS | SSRQSSGFQVF |
| 3.67 | 2/3 | 4/9 | EGYSLRYYYAN | GKNNYPS | DSRDSSGFQVF |
| 0.95 | 3/3 | 5/9 | EGHSLRYAYAN | GKNNRPQ | SSRDSSGFQVF |
| no signal | 0/3 | 1/9 | EGDSLRYYYAN | YKHNRPS | SSRDSSGPQVF |
| 3.62 | 2/3 | 4/9 | EGDSLRYYYAN | QKNNRPS | SSRDSSGFSVF |
| no signal | 0/3 | 0/9 | SGDSLRYYYAN | KDNNRPS | SSRDSSGFQVF |
| 4.07 | 2/3 | 2/9 | EWDSLRYYYAN | GKNTRPS | SSRDSSPFQVF |
| 2.79 | 3/3 | 4/9 | EGVSLRYYYAN | GKNFRPS | SSRDSSGFQYF |
| no signal | 0/3 | 0/9 | EGDSLRYYYAN | GKNNRPS | SSHKSSGFQNF |
| 3.91 | 2/3 | 2/9 | EGDSLRYYYAN | GKRNFPS | SSRDSSGFQFF |
| 3.52 | 3/3 | 4/9 | EGDSLKYYYTN | GKNNRPS | SRRDSSGFQVF |
| no signal | 0/3 | 2/9 | EGDSLRWYYAN | GKNNGPS | SSRISSGFQVF |
| 2.14 | 3/3 | 1/9 | EGDSLNYLYAN | GKNTRPS | SSRDSSGFQVF |
| 1.96 | 3/3 | 6/9 | EGDSLRYMYAN | KGNNRPS | SSRDSSGFQVF |
| 4.10 | 1/3 | 4/9 | EGDSLRYYYAN | GWNNRCK | SSRDSSGFQVF |
| 3.97 | 2/3 | 3/9 | EPDSMRYYYAN | GKNNRPS | SSRDSSGKQVF |
| 3.36 | 2/3 | 2/9 | EFDSLRYYYLN | GKNNRPS | SSRDSSGFQVM |
| no signal | 0/3 | 0/9 | EGDSLRYYYIN | GKNNRKS | SSRDSSGFQVF |
| 3.66 | 1/3 | 3/9 | EGDSARYYYAN | GKNNRLS | SSRDSPGFQVF |
| 1.95 | 3/3 | 1/9 | EGDSLRYYYAN | GKNNRPS | FSRCSSGPQVF |
| 3.93 | 1/3 | 4/9 | EGDSLRYYYYN | GDNNRPS | SSDDSSGFQVF |
| 3.81 | 3/3 | 3/9 | EGDSLRYYYAN | GKNNIMS | SSRDSSGFGVF |
| 2.13 | 3/3 | 3/9 | EGDSLRYYHAN | GKENRPS | SSRESSGFQVF |
| 2.34 | 3/3 | 5/9 | EGYSLRYSYAN | GKNNNPS | SSRDSSGFQVF |
| 3.16 | 3/3 | 3/9 | EANSLRYYYAN | DKNNRPS | SSRDSSGFQVF |
| no signal | 0/3 | 4/9 | EGDSLRYYYAN | LCNNRPS | SSRDWSGFQVF |
| 4.00 | 1/3 | 1/9 | EGDSLRYYYAA | GKNNRPS | SFRDSSTFQVF |
| 3.10 | 2/3 | 2/9 | LGDSLRYYYAN | GKNNRPS | ISRDSSGFQVF |
| 3.57 | 1/3 | 1/9 | EGDSLRYYYAN | GKNNRYS | HSRDSSNFQVF |
| 0.85 | 3/3 | 2/9 | EGDSLRYAYAN | GPGNRPS | SSRDSSGFQVF |
| 3.37 | 3/3 | 2/9 | EGDSERYYDAN | GHNNRPS | SSRDSSGFQVF |
| no signal | 0/3 | 2/9 | EGDVLRYYYAN | GKTNRPS | SSRDSSGFVVF |
| 2.54 | 2/3 | 4/9 | EGDSLRYYYAN | GHNNRPS | WVRDSSGFQVF |
| 4.19 | 2/3 | 2/9 | EGDSLRYYYAN | GKNNRPS | CSRDSMGFQVA |
| 3.19 | 3/3 | 0/9 | EGDSLDYYYAN | GHNNRPS | SSRDSSGFQVA |
| 3.67 | 3/3 | 3/9 | EGDSARYYYAN | GKNNRPE | SSRDSSGFQVF |
| 1.79 | 3/3 | 2/9 | EGDSLRNYYAN | DKNNRPS | SSRDSSGFQVF |
| 4.35 | 3/3 | 3/9 | EGDSLRYYYAN | GPNPRPS | SSRDSSGNQVF |
| 1.26 | 3/3 | 0/9 | EGDDLRYMYAN | GKNNRPS | SSRDSSGFQVF |
| no signal | 0/3 | 2/9 | EGDSLRYYYAN | GKNNRWS | SSRDSSGFQPE |
| 2.77 | 3/3 | 5/9 | EGLSLRWYYAN | GKNNRPS | SSRDSSGFKVF |
| 4.72 | 2/3 | 3/9 | EGDSLTYYYMN | GKNNRPS | SSRDSSGFQVF |
| 3.60 | 1/3 | 4/9 | EGDSLKYYYAN | GKKNRPS | SDRDSSGFQVF |
| 3.03 | 3/3 | 4/9 | EGDSLRYYIAN | GKNNRPS | SVRDSSGFQVF |
| 3.53 | 1/3 | 3/9 | EGDSLRYYYAV | GKNDRPH | SSRDSSGFQVF |
| no signal | 0/3 | 0/9 | EGDLLRYYYAN | GKNNRYS | SSRDSSEFQVF |
| 4.14 | 2/3 | 2/9 | EGDSLLYYYAN | GKNNRPS | SSVMSSGFQVF |
| 3.76 | 3/3 | 1/9 | EGDSLIYYYAN | GKNNIPS | SSRDSSGFQVF |
| 4.33 | 1/3 | 4/9 | EGDSTRYYYAN | KKNNRPR | SSRDSSGFQVF |
| no signal | 0/3 | 0/9 | EGDVLRYYYAN | GLNNRPS | SWRDSSGFQVF |
| 3.88 | 1/3 | 1/9 | EGDSARYYYAN | GKNNHPS | SSIDSSGFQVF |
| 2.20 | 3/3 | 1/9 | EGNSLRYAIAN | GKNNRPS | SSRDSSGFQVF |
| 2.76 | 3/3 | 3/9 | EGDSLRYYHAN | GKNNRPS | LSRDPSGFQVF |
| 4.18 | 1/3 | 4/9 | EGPSLRYYYAN | FKNNRPS | SSRDSMGFQVF |

The opening 11 entries, copied out:

{"CDR-L1": "EGRSLRYTYAV", "CDR-L2": "GKNNRPS", "CDR-L3": "SSRDSSGFQVF", "mean, log10 nM": "4.37", "seen in": "3/3", "signal with controls": "4/9"}
{"CDR-L1": "EGDSLRYYYYN", "CDR-L2": "GKNNRPS", "CDR-L3": "SSRDQSGWQVF", "mean, log10 nM": "4.05", "seen in": "1/3", "signal with controls": "3/9"}
{"CDR-L1": "EGDFLRYNYAN", "CDR-L2": "GKNNRPS", "CDR-L3": "SSRDSSGFAVF", "mean, log10 nM": "0.99", "seen in": "3/3", "signal with controls": "3/9"}
{"CDR-L1": "EGDSLRYYYSN", "CDR-L2": "GKNNRPS", "CDR-L3": "SSRDSWGKQVF", "mean, log10 nM": "2.98", "seen in": "1/3", "signal with controls": "1/9"}
{"CDR-L1": "EGDSLEYYYAN", "CDR-L2": "GKNNLPY", "CDR-L3": "SSRDSSGFQVF", "mean, log10 nM": "3.12", "seen in": "3/3", "signal with controls": "4/9"}
{"CDR-L1": "VGDSLRYYYRN", "CDR-L2": "GKNNRPS", "CDR-L3": "RSRDSSGFQVF", "mean, log10 nM": "4.71", "seen in": "2/3", "signal with controls": "6/9"}
{"CDR-L1": "EWDSLRYYYAN", "CDR-L2": "GKHNRPS", "CDR-L3": "WSRDSSGFQVF", "mean, log10 nM": "4.27", "seen in": "2/3", "signal with controls": "0/9"}
{"CDR-L1": "EGDSLRYYYAN", "CDR-L2": "GKQNRPS", "CDR-L3": "SHRDSMGFQVF", "mean, log10 nM": "3.89", "seen in": "1/3", "signal with controls": "2/9"}
{"CDR-L1": "EADSLRYYYAN", "CDR-L2": "GKNNRYS", "CDR-L3": "SSRISSGFQVF", "mean, log10 nM": "3.95", "seen in": "3/3", "signal with controls": "3/9"}
{"CDR-L1": "EGDSLRHYYAN", "CDR-L2": "LKNNRPS", "CDR-L3": "ASRDSSGFQVF", "mean, log10 nM": "no signal", "seen in": "0/3", "signal with controls": "1/9"}
{"CDR-L1": "AGDSLRYYYAN", "CDR-L2": "GKNCRPS", "CDR-L3": "SSRDSKGFQVF", "mean, log10 nM": "2.41", "seen in": "3/3", "signal with controls": "4/9"}